PubChem BioAssay AID878 (University of Pittsburgh Molecular Library Screening Center, 2007)
This is a selection; strong and weak results do not stand in their true shares. Some tests of the compounds listed are not included; inactive here does not mean inactive elsewhere. The source made the active and inactive calls.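 The calls were made as follows: active = activation of at least 50% relative to the plate's high and low controls in the primary single-dose screen; inactive = activation below 50%.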

Experiment: compounds producing H2O2 with reducing agent – biochemical, NIH compound library profiling, artefact control for MLSCN library redox annotation, primary screen (AID 878);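 also: compound incubated with DTT at 0.8 mM final as the reducing agent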
Conditions: DTT-dependent redox cycling H2O2, phenol red/HRP absorbance; at 10 µM; hits give high values; 100% = 100 µM peroxide control, 0% = buffer

| SMILES | activation |
| --- | --- |
| CC(C)N1C(=O)CC2(CCN(CCOC(=O)C(O)(c3ccccc3)c3ccccc3)CC2)C1=O | inactive: 1.96% |
| O=C(NCC1(N2CCCCC2)CCCCC1)c1cc([N+](=O)[O-])ccc1Cl | inactive: -0.51% |
| CCN1CCCC(OC(=O)C2(O)c3ccccc3C=Cc3ccccc32)C1 (centres undefined) | inactive: -0.17% |
| C=CCN1CCN(CCOC(=O)C(O)(c2ccccc2)c2ccccc2)CC1 | inactive: 0.17% |
| CN(C)C1CCCC1OC(=O)C(O)(c1ccccc1)c1ccccc1 (centres undefined) | inactive: 0.04% |
| Cc1ccccc1C(=O)NCC1(N2CCCCC2)CCCCC1 | inactive: -1.98% |
| COc1cccc(C(=O)NCC2(N3CCCCC3)CCCCC2)c1 | inactive: -1.77% |
| CN(C)c1cccc(C(=O)NCC2(N(C)C)CCCCC2)c1 | inactive: -0.13% |
| O=C(OC1CN2CCC1CC2)C(CO)(c1ccccc1)c1ccccc1 (centres undefined) | inactive: -0.59% |
